The list shows a part of the results, in another mix than the full data. Some of these compounds have results that are not shown, active ones among them. The source made the active and inactive calls.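 Rule for the calls: active = Z-score of -3 or lower, scaled per plate to the spread of control and sample wells; inactive = z-score above -3.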

Chains of the proteins cited; added tags and fusions are not shown.
UniProt Q14289, whole entry, looked up: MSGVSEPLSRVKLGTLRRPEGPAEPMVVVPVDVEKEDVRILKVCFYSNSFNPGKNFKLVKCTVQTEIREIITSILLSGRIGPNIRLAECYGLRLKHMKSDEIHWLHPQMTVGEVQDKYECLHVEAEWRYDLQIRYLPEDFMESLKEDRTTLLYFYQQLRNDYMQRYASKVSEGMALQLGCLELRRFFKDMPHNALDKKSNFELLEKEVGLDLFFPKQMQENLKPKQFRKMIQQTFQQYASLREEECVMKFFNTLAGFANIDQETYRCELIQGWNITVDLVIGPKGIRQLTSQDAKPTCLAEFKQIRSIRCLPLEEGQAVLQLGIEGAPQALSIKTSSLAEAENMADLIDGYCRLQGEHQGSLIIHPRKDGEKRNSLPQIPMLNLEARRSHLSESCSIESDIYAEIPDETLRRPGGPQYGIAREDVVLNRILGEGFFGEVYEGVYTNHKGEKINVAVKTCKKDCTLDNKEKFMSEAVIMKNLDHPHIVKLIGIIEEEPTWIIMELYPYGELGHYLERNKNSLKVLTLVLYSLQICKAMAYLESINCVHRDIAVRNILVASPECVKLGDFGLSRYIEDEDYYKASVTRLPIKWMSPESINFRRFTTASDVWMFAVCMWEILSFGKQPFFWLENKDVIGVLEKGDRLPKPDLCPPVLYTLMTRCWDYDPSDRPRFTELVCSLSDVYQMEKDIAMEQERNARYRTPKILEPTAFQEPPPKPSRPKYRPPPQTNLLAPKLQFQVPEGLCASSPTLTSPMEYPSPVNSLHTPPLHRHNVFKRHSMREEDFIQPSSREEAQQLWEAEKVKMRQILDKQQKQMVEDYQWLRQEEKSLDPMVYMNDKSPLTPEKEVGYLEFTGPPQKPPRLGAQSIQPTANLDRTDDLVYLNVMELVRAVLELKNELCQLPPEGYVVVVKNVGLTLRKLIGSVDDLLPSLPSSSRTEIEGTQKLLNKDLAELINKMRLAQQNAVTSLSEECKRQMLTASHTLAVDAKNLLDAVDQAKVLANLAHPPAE

The target in the experiment is Protein-tyrosine kinase 2-beta (Homo sapiens) (UniProt Q14289). In words: Pyk2 FERM oligomerization blockers – Q293 cells, FERM NanoBiT luminescence, HTS, primary screen (AID 1347419).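 Note: the deposit names both 25 µM and 10 µM; negative z-score means lost luminescence so less FERM oligomerization.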 Further details: dose or concentration left out as unconfirmed. The conditions noted are these: stronger effect = lower value.
On to `O=C(OC1CN2CCC1CC2)C(CO)(c1ccccc1)c1ccccc1` (stereo not drawn), for which the z-score was inactive: 0.44. Under `CN(C)c1cccc(C(=O)NCC2(N(C)C)CCCCC2)c1` stands inactive: 0.2; under `CC(C)N1C(=O)CC2(CCN(CCOC(=O)C(O)(c3ccccc3)c3ccccc3)CC2)C1=O`, inactive: -0.36.

Source of the values: PubChem BioAssay AID1347419 (Sanford-Burnham Center for Chemical Genomics, 2020).
